The data set relates to normal human plasma. Particulars: composition in saline at 5 mg/mL or 10 mg/mL; 30 μL added to 120 μL normal human plasma; STart 4 Coagulation Analyzer.

Turning to “glucosamine-PGGA-paclitaxel composition [Example 1]”, the “clotting time (APTT test, FIG. 3)” value is 50 to 60 s.

The record behind these values is patent US20110224148A1, “CARBOHYDRATE-POLYAMINO ACID-DRUG CONJUGATES” (priority 2010, published 2011).
